Values quoted from earlier work as cited in US20260151486A1, “PRESSURIZED NANOEMULSION” (BIOFRONTERA BIOSCIENCE GMBH, priority 2023, published 2026).

Conditions: cited from earlier work

In the case of betamethasone propionate [BMP], the “octanol-water partition coefficient (log P)” value is given as 1.14.
